The source of these data is patent US10881712B2, “Neuroprotective agents derived from spider venom peptides” (THE UNIVERSITY OF QUEENSLAND, priority 2015, dated 2021).

Molecules are shown by their SMILES. Entries after “also recorded” stand apart in the source; their conditions may differ.

One series has as its target T1, rASIC1b (Rattus norvegicus, UniProt P55926).
T1 construct: expressed in transfected cells; host or cells: Xenopus laevis oocytes injected with cRNA
T1 sequence (P55926 1-559 isoform P55926-3): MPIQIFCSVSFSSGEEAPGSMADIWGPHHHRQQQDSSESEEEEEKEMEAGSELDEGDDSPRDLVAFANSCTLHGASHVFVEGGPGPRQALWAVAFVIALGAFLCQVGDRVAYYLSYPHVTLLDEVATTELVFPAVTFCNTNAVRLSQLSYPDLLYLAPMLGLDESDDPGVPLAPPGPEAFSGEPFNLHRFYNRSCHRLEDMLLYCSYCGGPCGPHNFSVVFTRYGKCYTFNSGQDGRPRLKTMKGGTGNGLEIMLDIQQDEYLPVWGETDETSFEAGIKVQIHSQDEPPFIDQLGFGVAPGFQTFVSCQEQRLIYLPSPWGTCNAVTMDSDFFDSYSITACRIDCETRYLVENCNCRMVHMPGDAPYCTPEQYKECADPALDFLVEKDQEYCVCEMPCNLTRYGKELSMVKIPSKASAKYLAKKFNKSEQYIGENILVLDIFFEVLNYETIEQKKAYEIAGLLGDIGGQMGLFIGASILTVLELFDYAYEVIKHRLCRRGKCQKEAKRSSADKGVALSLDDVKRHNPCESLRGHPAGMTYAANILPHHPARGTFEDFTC
The series can be described thus: TEVC on Xenopus oocytes expressing rASIC1b. Type of series: cell-based. The procedure: The ability of the peptides of the invention to modulate ASIC currents was assessed using two-electrode voltage clamp (TEVC) electrophysiology experiments performed on Xenopus laevis oocytes expressing homomeric ASIC channels. Xenopus oocytes are widely used as an expression system for functional characterisation of ion channel modulators. TEVC allows measurement of whole-cell ion channel currents while controlling the membrane potential.
Oocytes were harvested from anaesthetised female X. laevis then defolliculated by treatment with collagenase (Sigma, type I). Oocytes were injected with in vitro transcribed ASIC cRNA (capped RNA). Oocytes were kept at 17-18° C. in ND96 solution containing 96 mM NaCl, 2 mM KCl, 1.8 mM CaCl2, 2 mM MgCl2, 5 mM HEPES, 5 mM pyruvic acid, 50 μg/ml gentamicin (pH 7.4), and fetal horse serum (2.5%), and experiments were performed at room temperature (21-22° C.) 1-3 days after cRNA injection. Oocytes were clamped at −60 mV (Warner OC-725C oocyte clamp; Warner Instruments, CT, USA) using two standard glass microelectrodes of 0.5-2 MΩ resistance when filled with 3 M KCl. Data acquisition and analysis were performed using pCLAMP software, Version 10 (Axon Instruments, CA, USA). Currents were elicited by a drop in pH from 7.45 to 6.0 using a microperfusion system to allow rapid solution exchange. […]

The test system of series [1] is spontaneously hypertensive rats (SHR). In words: Focal reperfusion (endothelin-1) stroke model in conscious SHR, i.c.v. administration. In kind it is in vivo, rat. The procedure:
(§1) The neuroprotective efficacy of Hi1a was assessed in a rat model of focal cerebral ischemia. In vivo experiments were conducted using a focal reperfusion model of stroke in conscious spontaneously hypertensive rats (SHR) as previously reported (McCarthy et al., Neuropharmacology 99, 650-657, 2015). Two 23-gauge stainless steel guide cannulae were stereotaxically implanted into anaesthetised animals (ketamine 75 mg/kg; xylazine 10 mg/kg; intraperitoneal) 5 days prior to stroke induction. The first cannula was implanted 3 mm dorsal to the right middle cerebral artery for stroke induction. The second cannula was implanted into the left lateral ventricle for drug administration.
(§2) After 5 days recovery, stroke was induced in conscious rats by inserting a 30-gauge injector protruding 3 mm below the previously implanted cannula. […] Only animals that achieved a level 4 stroke were included in the study. Typical behaviours associated with a level 4 stroke include continuous ipsilateral circling, clenching, dragging, failure to extend the left contralateral forelimb, chewing, jaw flexing, and shuffling with forepaws.
(§3) Compared to models of middle cerebral artery occlusion (MCAO) achieved by surgical exposure of the artery, this model has the advantage of minimal surgical intervention in the brain, and the stroke is induced in the absence of anaesthetics, which can confound the results of drug studies (Callaway et al., 1999; Sharkey et al., 1993). Stroke-induced motor deficit was assessed by counting the number of foot faults made while rats traversed a gradually narrowing ledged beam (McCarthy et al., Stroke 40, 1482-1489, 2009). Animals were trained to traverse the beam on two consecutive days prior to pre-stroke assessment. For the neurological score, postural abnormalities were assessed by elevating the rat by the tail above a flat surface and grading the severity of thorax twisting and the angle of forelimb extension. Both indicators of neurological health are scored between 0 and 3, with a score of 0 corresponding to no twisting of the thorax or complete forelimb extension towards the flat surface. A score of 3 corresponds to severe thorax twisting and a failure to extend the forelimb. The score for thorax twisting and forelimb extension are summed to give a total possible score of 6, which represents severe neurological deficit. Both behavioural tests were performed prior to stroke, and at 24 and 72 h after stroke.
(§4) At 72 h post-stroke, rats were re-anaesthetised (ketamine 75 mg/kg; xylazine 10 mg/kg; intraperitoneal) and transcardially perfused with physiologically buffered saline. Brains were removed, snap frozen and sectioned (16 μm) at eight pre-determined forebrain levels (−3.20 mm to 6.8 mm) relative to bregma. Sections were imaged, and infarct volumes were measured using the ballistic light method and corrected for edema (McCarthy et al., Stroke 40, 1482-1489, 2009).
The doses of Hi1a and PcTx1 were chosen to give approximately equivalent molar concentrations as Hi1a is twice the molecular mass of PcTx1. Drugs were dissolved in saline and infused in a volume of 3 μl over 3 min. At 3 days after stroke, the brains were perfused, removed, then snap frozen and sectioned to determine the infarct size.
In a separate series of experiments, Hi1a (2 ng/kg) was administered i.c.v. to SHR at 2, 4 or 8 hours after stroke induction. Motor-coordination (ledged beam test) and stroke-related postural abnormalities (neurological test) were evaluated at days 1 and 3 post-stroke. At 3 days after stroke, the brains were perfused, removed, then snap frozen and sectioned to determine the infarct size.

For series [2] the test system is unchanged. In words: Focal reperfusion (endothelin-1) stroke model in conscious SHR, intranasal administration. The following applies: 2 μg/kg i.n. four hours after stroke. Type of series: in vivo, rat. The procedure:
as §1, §2
as §3, with “Animals were trained to traverse the beam on two consecutive days prior to pre-stroke assessment.” left out, “A score of 3 corresponds to severe thorax twisting and a failure to extend the forelimb. The score for thorax twisting and forelimb extension are summed to give a total possible score of 6, which represents severe neurological deficit. Both behavioural tests were performed prior to stroke, and at 24 and 72 h after stroke.” left out
as §4
Four hours after stroke induction, SHR were treated with a single intranasal (i.n.) dose of Hi1a (2 μg/kg) or vehicle (saline). […] Motor-coordination (ledged beam test) and stroke-related postural abnormalities (neurological test) were evaluated at 24 and 72 hours post-stroke. […]

The mark [3] stands for this setting: 2 ng/kg i.c.v., 24 and 72 h post-stroke.

Turning to `CC[C@H](C)[C@@H]1NC(=O)[C@@H](NC(=O)[C@H](CCC(=O)O)NC(=O)[C@H](CC(N)=O)NC(=O)[C@@H](N)CO)CSSC[C@@H]2NC(=O)[C@@H]3CSSC[C@@H](C(=O)N[C@H](C(=O)N4CCC[C@H]4C(=O)N[C@H](C(=O)N4CCC[C@H]4C(=O)NCC(=O)N[C@@H](Cc4ccccc4)C(=O)N[C@H]4CSSC[C@@H]5NC(=O)[C@@H]6CSSC[C@@H](C(=O)N[C@@H](C)C(=O)N7CCC[C@H]7C(=O)N[C@H](C(=O)N[C@H](C(=O)O)[C@@H](C)O)[C@@H](C)CC)NC(=O)[C@H](C(C)C)NC(=O)[C@H](CO)NC(=O)[C@H](CO)NC(=O)[C@H](CCCCN)NC(=O)[C@H](CC(N)=O)NC(=O)CNC(=O)[C@H](CO)NC(=O)[C@H](CCCNC(=N)N)NC(=O)[C@H](CCCCN)NC(=O)[C@H](Cc7c[nH]c8ccccc78)NC(=O)[C@H](CSSC[C@H](NC(=O)[C@H](CCC(N)=O)NC(=O)[C@H](CCCCN)NC(=O)[C@H](Cc7c[nH]c8ccccc78)NC(=O)[C@H](CCCCN)NC(=O)[C@H](C(C)C)NC(=O)[C@H](CC(C)C)NC4=O)C(=O)N[C@@H](CC(=O)O)C(=O)NCC(=O)N[C@@H](CCCNC(=N)N)C(=O)N[C@@H](CCC(=O)O)C(=O)N[C@@H](CCCNC(=N)N)C(=O)N[C@@H](CC(=O)O)C(=O)N6)NC(=O)[C@H](CCC(=O)O)NC(=O)[C@H](CC(C)C)NC(=O)CNC(=O)[C@H](C)NC5=O)[C@@H](C)CC)C(C)C)NC(=O)[C@H](C(C)C)NC(=O)[C@H](CCC(=O)O)NC(=O)[C@H](Cc4ccccc4)NC(=O)[C@H](CO)NC(=O)[C@H](Cc4c[nH]cn4)NC(=O)[C@H](CCCNC(=N)N)NC(=O)[C@H](CCCNC(=N)N)NC(=O)[C@H](CCCCN)NC(=O)[C@H](Cc4ccc(O)cc4)NC(=O)[C@H](CSSC[C@H](NC(=O)[C@H](CO)NC(=O)[C@H](CC(C)C)NC(=O)[C@H](Cc4c[nH]c5ccccc45)NC(=O)[C@H](CCCCN)NC(=O)[C@H](CCCNC(=N)N)NC1=O)C(=O)N[C@@H](C(C)C)C(=O)N[C@@H](CC(=O)O)C(=O)N[C@@H](CCCNC(=N)N)C(=O)N[C@@H](CCCCN)C(=O)N[C@@H](CC(N)=O)C(=O)N[C@@H](CC(=O)O)C(=O)N3)NC(=O)[C@H](CCC(=O)O)NC(=O)[C@H](CC(C)C)NC(=O)CNC(=O)[C@H](CCC(=O)O)NC2=O` [Hi1a], on rASIC1b (30 nM at pH 7.45), the “Effect on rASIC1b current” value is “minimal effect”. Moreover, the “Effect on rASIC1b current” value at rASIC1b (1 μM at pH 7.45) was “mildly potentiated”. Further, the “Brain concentration equated from dose” value in series [1] (2 ng/kg i.c.v.) was ~1.2 nM. In addition, the “Infarct volume in cortical and striatal regions (in words)” value in series [1] (2 ng/kg i.c.v. at 2, 4 or 8 hours post-stroke) is reported as “reduction in infarct volume; also recorded: reduces infarct size”. Also, in series [1] (setting [3]), the “Motor impairment (ledged beam test)” value is recorded as “markedly reduced” and the “Neurological deficit (neurological score)” value is listed as “markedly reduced”. In series [1] (2 ng/kg i.c.v., 72 h post-stroke), the “Neuronal survival / neuronal architecture (NeuN staining) in penumbral and core regions” value was “preservation of neuronal architecture; also recorded: improved neuronal survival”. Moreover, the “Reduction of infarct size” value in series [1] (single dose 2 ng/kg i.c.v. at 2, 4 or 8 hours post-stroke, volumes at 72 h) is 63-83%. For the same molecule, the “Infarct size in cortical (penumbral) and striatal (core) regions” value in series [1] (single i.c.v. dose two hours after stroke, Hi1a 2 ng/kg, PcTx1 and mutant 1 ng/kg, 72 h post-stroke) is on record as “significant reduction in infarct volume; also recorded: reduced infarct size”. For the same molecule, in series [2], the “Motor impairment (ledged beam assay)” value is “less motor impairment; also recorded: reduces sensorimotor deficits”, the “Neurological deficit (neurological score)” value is recorded as “reduced neurological deficit; also recorded: improves overall neurological score” and the “Weight loss after stroke” value is reported as “less weight loss; also recorded: minimises weight loss”. The “Infarct size in cortical and striatal regions” value in series [2] (72 h post-stroke) is given as “dramatically reduced; also recorded: reduces infarct size”.
